Test results: ChEMBL document CHEMBL1144891, “Design, synthesis, and pharmacology of a highly subtype-selective GluR1/2 agonist, (RS)-2-amino-3-(4-chloro-3-hydroxy-5-isoxazolyl)propionic acid (Cl-HIBO)” (J Med Chem, 2003)

Sequences of proteins named here, by UniProt entry; tags and fusion partners are left off. A change or cut given only in a name is not applied to a line headed by its entry.
UniProt P19492: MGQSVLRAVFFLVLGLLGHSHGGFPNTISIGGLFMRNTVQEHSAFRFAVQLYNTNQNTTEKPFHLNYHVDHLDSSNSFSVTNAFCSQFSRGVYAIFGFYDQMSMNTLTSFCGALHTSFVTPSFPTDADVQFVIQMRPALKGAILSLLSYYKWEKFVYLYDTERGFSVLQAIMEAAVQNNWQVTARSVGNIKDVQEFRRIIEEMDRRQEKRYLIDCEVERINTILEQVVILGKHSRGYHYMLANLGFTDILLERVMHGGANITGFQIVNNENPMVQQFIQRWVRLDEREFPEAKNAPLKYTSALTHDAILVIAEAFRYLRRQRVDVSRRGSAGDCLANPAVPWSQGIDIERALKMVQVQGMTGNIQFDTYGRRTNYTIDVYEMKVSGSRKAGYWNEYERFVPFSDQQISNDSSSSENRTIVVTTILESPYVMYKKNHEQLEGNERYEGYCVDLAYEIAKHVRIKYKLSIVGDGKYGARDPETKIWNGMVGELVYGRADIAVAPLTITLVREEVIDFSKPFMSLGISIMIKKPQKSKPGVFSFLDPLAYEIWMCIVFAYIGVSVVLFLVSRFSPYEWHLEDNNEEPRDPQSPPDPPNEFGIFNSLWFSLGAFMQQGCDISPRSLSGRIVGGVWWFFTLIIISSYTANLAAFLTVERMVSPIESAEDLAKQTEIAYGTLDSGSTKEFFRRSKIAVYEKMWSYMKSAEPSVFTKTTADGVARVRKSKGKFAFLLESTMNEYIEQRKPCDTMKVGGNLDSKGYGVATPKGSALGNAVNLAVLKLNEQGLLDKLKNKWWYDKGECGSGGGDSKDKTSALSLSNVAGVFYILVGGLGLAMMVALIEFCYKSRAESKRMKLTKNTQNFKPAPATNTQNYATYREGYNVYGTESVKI

Target: Glutamate receptor 3 (Rattus norvegicus, UniProt P19492)
Experiment: Effective concentration of compound was determined for electrophysiological properties on Ionotropic glutamate receptor AMPA 3 (GluR3) using […] Xenopus laevis oocytes
Format: functional, cell-based, Oocyte

For `Cc1onc(O)c1CC(N)C(=O)O` [(R,S)-AMPA], the EC50 was 1.4 µM.
